{"source": "PubChem BioAssay (EPA / NIEHS)", "note": "The entries are a selection whose mix differs from that of the whole data set. Activity calls are given as the source filed them. The calls were made as follows: active = hit-call score of the fitted dose curve at least 0.9, where 1 is the maximum; inactive = score below 0.9.", "data": [{"experiment": "ATG_PPRE_CIS: Attagene CIS-FACTORIAL HepG2 Assay for human Peroxisome Proliferator-activated Response Element (PPRE) (AID 2282958)", "conditions": "HepG2 PPRE cis-element reporter, Attagene transcription factor profiling; actives raise or lower the signal", "values": [{"smiles": "CC(O)CC(C)(C)O", "note": "(stereo not given)", "outcome": "inactive"}, {"smiles": "O=C(O)CCCCCCCC(=O)O", "outcome": "inactive"}, {"smiles": "CC(N)=O", "outcome": "inactive"}, {"smiles": "CC(C#N)(CCC(=O)O)N=NC(C)(C#N)CCC(=O)O", "note": "(stereo not given)", "outcome": "inactive"}, {"smiles": "CC(C)C1CCC(O)CC1", "note": "(stereo not given)", "outcome": "inactive"}, {"smiles": "S=C(S)NCCNC(=S)S.[Mn+2].[S-]C([S-])=NCCN=C([S-])[S-].[Zn+2]", "outcome": "inactive"}, {"smiles": "O=P(O)(O)Oc1ccccc1", "outcome": "inactive"}, {"smiles": "SCCc1cnccn1", "outcome": "inactive"}, {"smiles": "CCN(CC)c1ccc(C(=O)c2ccccc2C(=O)O)c(O)c1", "AC50": "active: 47 µM"}, {"smiles": "CCCOC(=O)NCCCN(C)C", "outcome": "inactive"}, {"smiles": "OC[C@@H](O)[C@@H](O)[C@H](O)[C@H](O)CO", "outcome": "inactive"}, {"smiles": "O=C1NC(=O)c2ccccc21", "outcome": "inactive"}, {"smiles": "CCCCNS(=O)(=O)c1ccccc1", "outcome": "inactive"}, {"smiles": "CCC1(c2ccccc2)C(=O)NCNC1=O", "outcome": "inactive"}, {"smiles": "O=C(Oc1ccccc1)c1ccccc1O", "outcome": "inactive"}, {"smiles": "CCN(CC)CCOC(=O)c1ccc(N)cc1", "outcome": "inactive"}, {"smiles": "CC(C)(C)c1cc(/C=C2\\SC(N)=NC2=O)cc(C(C)(C)C)c1O", "outcome": "inactive"}, {"smiles": "Nc1ccc(S(=O)(=O)Nc2cnc3ccccc3n2)cc1", "outcome": "inactive"}, {"smiles": "CCCCCCCCCC(C)C=O", "note": "(stereo not given)", "AC50": "active: 12.6 µM"}, {"smiles": "CCCC1CCC(=O)CC1", "outcome": "inactive"}, {"smiles": "O=C(O)c1cc(C(=O)O)cc([N+](=O)[O-])c1", "outcome": "inactive"}, {"smiles": "CC(=O)CCC=C(C)CCC=C(C)C", "outcome": "inactive"}, {"smiles": "C=C(C)C(=O)OCCOCCOCCOC(=O)C(=C)C", "outcome": "inactive"}, {"smiles": "O=C(OCc1ccccc1)c1ccc(O)cc1", "AC50": "active: 42.5 µM"}, {"smiles": "OCCc1ccncc1", "outcome": "inactive"}, {"smiles": "Cc1cc(C2(c3cc(C)c(O)cc3C)OS(=O)(=O)c3ccccc32)c(C)cc1O", "outcome": "inactive"}, {"smiles": "Cc1cc(CCC(=O)OCCOCCOCCOC(=O)CCc2cc(C)c(O)c(C(C)(C)C)c2)cc(C(C)(C)C)c1O", "outcome": "inactive"}, {"smiles": "C=C(C)OC(C)=O", "outcome": "inactive"}, {"smiles": "CN1C(=O)CC[C@H]1c1cccnc1", "outcome": "inactive"}, {"smiles": "COc1ccc2nc(N)sc2c1", "outcome": "inactive"}, {"smiles": "S=C([S-])NCCNC(=S)[S-].[Mn+2]", "outcome": "inactive"}, {"smiles": "Nc1cccc(N)c1", "outcome": "inactive"}, {"smiles": "CC1(C)OC[C@@H]2O[C@@]3(C(=O)O)OC(C)(C)O[C@H]3[C@@H]2O1", "outcome": "inactive"}, {"smiles": "c1ccc2sc(SSN3CCOCC3)nc2c1", "outcome": "inactive"}, {"smiles": "CC(C)(CO)[N+](=O)[O-]", "outcome": "inactive"}, {"smiles": "O=C1CCCC1", "outcome": "inactive"}, {"smiles": "CCOC(=O)CC(CC(=O)OCC)(OC(C)=O)C(=O)OCC", "outcome": "inactive"}, {"smiles": "C=CCCCCCCCCC(=O)O", "AC50": "active: 43.5 µM"}, {"smiles": "CC(=O)Nc1ccc(CC(=O)O)cc1", "outcome": "inactive"}, {"smiles": "CN1CCCC1=O", "outcome": "inactive"}]}]}
